# Yeast mating assay 1: variants of the scFv Ab-14

Reference: Engelhart et al. 2022, doi:10.1038/s41597-022-01779-4. File: FLAb, binding data.

Target peptide (SARS-CoV-2 spike, HR2 region): PDVDLGDISGINAS

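The starting antibody came from a phage panning campaign against this peptide. The library (AAYL49) carries one to three amino acid substitutions per variant, with no insertions or deletions. The scFvs were displayed on barcoded MATa yeast, the peptide on MATalpha yeast. Binding brings cells together so that they mate, and sequencing counts the barcode pairs among the diploids. Scores were corrected for input abundance and mapped to Kd with protein pairs of known affinity run in the same pool. The assay was run in three technical replicates.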

Ab-14 is the parent antibody, in scFv form: VH, then a 15-residue (Gly4Ser)3 linker, then VL. The light chain is unchanged in all variants.
VH: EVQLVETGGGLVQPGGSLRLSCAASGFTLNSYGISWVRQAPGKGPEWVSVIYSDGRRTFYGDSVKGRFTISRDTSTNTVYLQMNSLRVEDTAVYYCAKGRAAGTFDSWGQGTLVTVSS
VL: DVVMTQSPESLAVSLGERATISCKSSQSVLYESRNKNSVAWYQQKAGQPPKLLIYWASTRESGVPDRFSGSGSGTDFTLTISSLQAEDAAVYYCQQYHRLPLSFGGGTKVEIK

Substitutions are numbered in sequence along the VH above, starting at 1 (not Kabat). Every variant below is changed at R57 of the VH (sequential numbering). The Kd shown is the geometric mean over detected replicates; a lower Kd is a better binder. A pair that was not seen in any replicate is written "no signal"; this usually means weak binding, but a binder can also be missed. For reference, the parent read 4.4 nM as the reference entry and 13 µM (one replicate of three) as a member of this library.

changes,Kd,replicates with signal
R57W A102I G103E,no signal,0 of 3
S31E R57Q R100H,56 nM,3 of 3
T28V G55S R57A,100 µM,1 of 3
R57T T58Y D62R,18 µM,2 of 3
G26H F27M R57Y,11 µM,1 of 3
G33F R57K A101T,8.4 µM,1 of 3
R57P F59A K65L,32 µM,3 of 3
R57V D62L R100C,2.7 µM,1 of 3
R57G,7.3 µM,1 of 3
G26K R57C G99T,5.0 µM,2 of 3
G55A R57A A101N,no signal,0 of 3
R57Q,no signal,0 of 3
I34D R57M T104K,no signal,0 of 3
N30R Y52K R57W,no signal,0 of 3
L29D Y52V R57Y,no signal,0 of 3
R57W T58E K65C,no signal,0 of 3
Y52I R57Q D106Y,no signal,0 of 3
N30D S31F R57G,18 µM,1 of 3
I34H R57F S63A,54 µM,2 of 3
T28P R57C S63Q,no signal,0 of 3
R57V K65W,41 µM,1 of 3
G26S R57N V64R,55 µM,1 of 3
R57M T104W,36 µM,3 of 3
Y52P D54T R57V,no signal,0 of 3
R57E S63K R100H,550 µM,1 of 3
R57D V64W A101T,19 µM,1 of 3
Y52W R57S G103M,2.2 µM,1 of 3
G55R R57G S63M,no signal,0 of 3
G33H R57Q A101H,no signal,0 of 3
R57Q G99L,no signal,0 of 3
R56E R57G S63L,no signal,0 of 3
F27L T28F R57N,no signal,0 of 3
N30D R57E T104S,3.1 µM,1 of 3
S31K G33C R57C,26 µM,1 of 3
S31N R57Y F105S,no signal,0 of 3
G26M G33T R57D,no signal,0 of 3
Y32N R56N R57N,no signal,0 of 3
G26T R57A A102Y,62 µM,3 of 3
S35L R57K R100C,no signal,0 of 3
R57S V64Q G103N,1.2 mM,1 of 3
G26D R57A T104Q,no signal,0 of 3
V50W R57I D106A,840 nM,1 of 3
F27H V50P R57N,78 µM,2 of 3
T28V R57N D106V,no signal,0 of 3
G33V R57I,190 nM,1 of 3
L29D R57G S63T,9.9 µM,3 of 3
L29A R57I T58L,no signal,0 of 3
R56E R57M A101L,11 µM,1 of 3
G26H R57I T104L,7.4 µM,2 of 3
T28I S35Y R57N,17 µM,1 of 3
T28H R57A G61A,730 nM,3 of 3
D54G R56F R57L,50 µM,2 of 3
N30H I34S R57N,no signal,0 of 3
G26V Y32H R57L,no signal,0 of 3
R56A R57S S63D,750 µM,1 of 3
R57Q D62N S63R,2.4 µM,1 of 3
G55K R57E G61W,300 µM,2 of 3
G33P R57P,3.2 µM,2 of 3
R57S G61E S63R,no signal,0 of 3
S53P R57I T58E,14 µM,1 of 3
Y32E I51Y R57M,no signal,0 of 3
F27W R56K R57L,no signal,0 of 3
R57Q T104M F105S,2.1 µM,2 of 3
Y52W R57H T58R,1.7 µM,2 of 3
N30H R57D S63N,790 nM,1 of 3
G55K R57Y,no signal,0 of 3
F27H R57Q A102G,no signal,0 of 3
S31W R57S Y60R,no signal,0 of 3
I34H R57G S63M,94 µM,1 of 3
N30S R57M Y60S,16 µM,1 of 3
Y32H R57K F105K,52 µM,1 of 3
T28I R57I G103P,23 µM,1 of 3
T28V S31A R57W,13 µM,2 of 3
T28F R57E S107N,no signal,0 of 3

Picked from the list: the 6 lowest averages where every replicate gave a value.

{"changes": "S31E R57Q R100H", "Kd": "56 nM", "replicates with signal": "3 of 3"}
{"changes": "T28H R57A G61A", "Kd": "730 nM", "replicates with signal": "3 of 3"}
{"changes": "L29D R57G S63T", "Kd": "9.9 µM", "replicates with signal": "3 of 3"}
{"changes": "R57P F59A K65L", "Kd": "32 µM", "replicates with signal": "3 of 3"}
{"changes": "R57M T104W", "Kd": "36 µM", "replicates with signal": "3 of 3"}
{"changes": "G26T R57A A102Y", "Kd": "62 µM", "replicates with signal": "3 of 3"}

Background: pairings of library AAYL49 with three empty control strains gave a value in 15% of cases (median 11 µM, 5th percentile 680 nM). Values in that range, when seen in few replicates, are hard to tell from nonspecific mating.